# Laboratory results: patent EP3820879B1, “PHOSPHORUS-CONTAINING PRODRUGS OF GEMCITABINE” (Changchun Changcheng Pharmaceutical Technology Co., LTD, priority 2018, dated 2020)
# Assays:
# [1] = Mouse pharmacokinetic study: plasma exposure of prodrug and dFdC; format: in vivo, C57BL/6 mice; details: Figure 1
# Method: (§1) C57BL/6 mice used in this experiment were purchased from Beijing Vital River Laboratory Animal Technology Co., Ltd., and male mice with a body weight in the range of 16~19 g were tested for administration. The animals were housed with appropriate air conditions (temperature: 20~25 °C; humidity: 40%~70%; light/dark cycle: 12 hours), and were provided with the food and water ad lib.
# (§2) The solution media for IV administration were DMSO: 30% solutol HS-15:saline = 10:10:80 (v/v/v). Test substances were dissolved in the media to obtain a clear solution, and filtered through PTFE to get a colorless clear solution for IV administration.
# The solution media for oral administration were DMSO: 30% solutol HS-15:saline = 10:10:80 (v/v/v). […]
# (§3) The pharmacokinetic (PK) profile of liver-targeted gemcitabine (dFdC) prodrug according to Formula I (i.e., Compound 4) was evaluated in male […] mice following intravenous administration (i.v.) at an equivalent dose to 15 mg/kg of Gemcitabine or following oral administration (PO or i.g.) at a dose of 80 mg/kg.
# Blood samples of designated animals (n = 3/time point/compound) were taken at 0.083, 0.25, 0.5, 1, 2, 4, and 8 hours following i.v. administration, and at 0.25, 0.5, 1, 2, 4, 8 and 24 hours following PO administration, respectively. […] Pharmacokinetic parameters were calculated using WinNonlin software (Pharsight Corp., Mountain View, CA).
# [2] = Mouse pharmacokinetic study: liver concentrations of dFdC and dFdU at 2h; format: in vivo, C57BL/6 mice; details: Fig. 2
# Method: as §1, §2
# The solution media for oral administration were DMSO: 30% solutol HS-15:saline = 10:10:80 (v/v/v). Test substances were dissolved in the media to obtain a clear solution.
# The animals were randomly divided into groups. All animals were fasted overnight (12-15 hours) before administration (but provided with water ad lib) and provided with foods 4 hours after the administration. As to IV administration of gemcitabine, the mice were administered with the formulations by vena caudalis injection (at dose of 15 mg/kg).
# as §3
# Blood samples of designated animals (n = 3/time point/compound) were taken at 0.083, 0.25, 0.5, 1, 2, 4, and 8 hours following i.v. administration, and at 0.25, 0.5, 1, 2, 4, 8 and 24 hours following PO administration, respectively. Systemic blood samples were collected into EDTA-K2-treated tubes containing tetrahydrouridine (THU, 0.5 mM) to inhibit further metabolism of gemcitabine (dFdC) to dFdU. In addition, at 2 hours following either i.v. or PO administration, 3 animals were sacrificed for collection of liver tissues. Plasma was isolated by centrifugation and frozen prior to analysis. Liver tissue was processed by homogenization in X5 volume of 20% methanol, and the homogenate was subject to centrifugation for collection of the supernatant. Both plasma and tissue concentrations of prodrugs, parent drug (i.e., gemcitabine, aka dFdC) and dFdU (a major metabolite of dFdC) were determined by LC/MS/MS analysis (Instrument: Agilent 6470. MS: Positive Ion, AJS ESI, MRM Detection; HPLC condition: Column: Agilent ZORBAX XDB-C18, 5 µm, 2.1×50mm (Column No.: 50-241), Flow rate: 0.30 mL·min^-1). Pharmacokinetic parameters were calculated using WinNonlin software (Pharsight Corp., Mountain View, CA).
# [3] = i.v., Gemcitabine 15 mg/kg or Compound 4 at equivalent dose
smiles,measurement,setting,value
O=c1nc(N[P@@]2(=O)OCC[C@@H](c3cccc(Cl)c3)O2)ccn1[C@@H]1OC(CO)[C@@H](O)C1(F)F (stereo partly drawn),exposure of the prodrug in the systemic circulation,[1]; PO 80 mg/kg,significant exposure of the prodrug
same,exposure of the prodrug in the systemic circulation,"[1]; i.v., equivalent dose to 15 mg/kg of gemcitabine",significant exposure of the prodrug
same,dFdC levels in the liver,[2]; PO 80 mg/kg,significant levels of dFdC
same,dFdU levels in the liver,[2]; PO 80 mg/kg,much less than that in Gemcitabine i.v. administration group
same,dFdC levels in the liver,[2]; [3],significant levels of dFdC
same,dFdU levels in the liver,[2]; [3],much less than that in Gemcitabine i.v. administration group
